We go through 1 compound from ChEMBL document CHEMBL2169795, “Macrocyclic peptoid-Peptide hybrids as inhibitors of class I histone deacetylases” (ACS Med Chem Lett, 2012).

In one experiment the target is Histone deacetylase. The experiment can be described thus: Inhibition of HDAC in human HeLa cell extracts by fluorimetric assay. The experiment is classed as protein assay.
The next experiment has as its target Histone deacetylase 1 (Homo sapiens, UniProt Q13547). The experiment can be described thus: Inhibition of human recombinant HDAC1 using Ac-Lys(Ac)-7-amino-4-methylcoumarin as substrate after 30 mins by trypsin-coupled fluorogenic assay.
In experiment [1] the target is Histone deacetylase 3/Nuclear receptor corepressor 2 (HDAC3/NCoR2) (Homo sapiens, UniProt O15379). The experiment can be described thus: Inhibition of human recombinant HDAC3/NCoR2 using Ac-Lys(Ac)-7-amino-4-methylcoumarin as substrate after 30 mins by trypsin-coupled fluorogenic assay. The experiment is classed as protein-complex assay.

The IC50 is the concentration that inhibits the measured activity by half. For `CCC(=O)CCCCC[C@@H]1NC(=O)[C@H](C)N(C)C(=O)C[C@H](CC(C)C)NC(=O)[C@H](Cc2c[nH]c3ccccc23)NC1=O`, the values for the IC50 (on Histone deacetylase; at Histone deacetylase 1; in experiment [1]) were 40 nM, 30 nM and 30 nM, respectively.
